{"sequences": {"note": "The chains behind the UniProt entries cited, without tags or fusion partners. Where a name states a change or a piece, a line headed by the entry shows the natural chain unless it says otherwise.", "UniProt P33534": "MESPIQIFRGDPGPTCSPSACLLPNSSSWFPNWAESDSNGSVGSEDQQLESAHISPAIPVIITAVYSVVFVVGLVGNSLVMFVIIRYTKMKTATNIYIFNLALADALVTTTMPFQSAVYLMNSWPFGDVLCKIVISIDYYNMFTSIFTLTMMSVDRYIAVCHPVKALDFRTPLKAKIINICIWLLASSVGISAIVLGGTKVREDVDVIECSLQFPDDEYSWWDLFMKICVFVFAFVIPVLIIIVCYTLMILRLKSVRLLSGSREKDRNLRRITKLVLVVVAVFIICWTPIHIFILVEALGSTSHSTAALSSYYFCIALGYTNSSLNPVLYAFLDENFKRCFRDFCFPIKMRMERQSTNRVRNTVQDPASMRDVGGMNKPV"}, "source": "ChEMBL document CHEMBL1127368", "about": "“Selective kappa-opioid agonists: synthesis and structure-activity relationships of piperidines incorporating on oxo-containing acyl group” (J Med Chem, 1994)", "key": {"Mus musculus [1]": {"test_system": "Mus musculus", "test": "Tested for in vivo antinociceptive activity in mouse abdominal constriction assay", "conditions": "Abdomen"}, "Mus musculus [2]": {"test_system": "Mus musculus", "test": "Tested for in vivo antinociceptive activity in mouse tail-flick assay", "format": "functional", "in_short": "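Tail-flick antinociception in mice of 20-35 g. Ten animals per dose. ED50 with 95% confidence intervals obtained by probit analysis.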"}, "Mus musculus [3]": {"test_system": "Mus musculus", "test": "Tested for in vivo locomotor impairment/sedation in mouse rotarod test", "format": "functional", "in_short": "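Locomotor impairment/sedation measured on a rotarod in mice of 20-35 g. Ten animals per dose. ED50 with 95% confidence intervals obtained by regression analysis.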"}, "[4]": {"biological_target": "Kappa-type opioid receptor (Mus musculus, UniProt P33534)", "test": "Evaluated for the binding affinity at kappa receptor"}, "Rattus norvegicus [5]": {"test_system": "Rattus norvegicus", "test": "Tested for in vivo antinociceptive activity in rat abdominal constriction", "format": "functional", "conditions": "Abdomen", "in_short": "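Male SD rats, 180-350 g. Abdominal constriction induced with phenyl-p-benzoquinone. Ten animals per dose. ED50 with 95% confidence intervals obtained by probit analysis.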"}, "Rattus norvegicus [6]": {"test_system": "Rattus norvegicus", "test": "Tested for in vivo locomotor impairment/sedation in rat rotarod", "format": "functional", "in_short": "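Male SD rats, 180-350 g. Trained in six 5-min sessions over 2 days. Rotarod accelerated from 3 to 30 rpm across five sessions. Ten animals per dose. ED50 with 95% confidence intervals obtained by regression analysis.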"}}, "data": [{"smiles": "CN(C(=O)Cc1ccc(Cl)c(Cl)c1)C1CCC2(CCCO2)CC1N1CCCC1", "note": "(stereo unspecified)", "values": [{"measurement": "ED50", "setting": "Mus musculus [1]", "result": 0.18, "unit": "µmol/kg"}, {"measurement": "ED50", "setting": "Mus musculus [2]", "result": 0.5, "unit": "µmol/kg"}, {"measurement": "ED50", "setting": "Mus musculus [3]", "result": 0.65, "unit": "µmol/kg"}, {"measurement": "Ki", "setting": "[4]", "result": 1.13, "unit": "nM"}, {"measurement": "ED50", "setting": "Rattus norvegicus [5]", "result": 0.47, "unit": "µmol/kg"}, {"measurement": "ED50", "setting": "Rattus norvegicus [6]", "result": 1.55, "unit": "µmol/kg"}]}]}
